# scFv variants of Ab-14 (heavy chain) against a SARS-CoV-2 spike peptide

The measurements come from Li et al. 2023 (doi:10.1038/s41467-023-39022-2) through the FLAb antibody collection.

Antigen: PDVDLGDISGINAS, a 14-residue peptide of the SARS-CoV-2 spike HR2 region.

Parent: Ab-14, a human scFv built as VH, three GGGGS repeats, VL. Only the CDRs of the heavy chain vary.
VH: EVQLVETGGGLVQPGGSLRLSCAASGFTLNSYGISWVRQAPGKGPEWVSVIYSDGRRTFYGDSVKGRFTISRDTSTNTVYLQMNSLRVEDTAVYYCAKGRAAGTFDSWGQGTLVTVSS
VL: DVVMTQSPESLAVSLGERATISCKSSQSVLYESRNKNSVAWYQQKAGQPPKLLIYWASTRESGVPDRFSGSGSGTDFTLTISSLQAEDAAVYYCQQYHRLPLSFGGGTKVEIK

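The parent was found by panning a naive human phage display library on the peptide. This is the validation round: designs drawn from the data on random variants, tested in the same kind of assay. Group labels follow the data file (Ctrl: baseline library sampled from a position-specific scoring matrix, with some repeated check sequences; GP: Gaussian process model; GPLM: also part of the Gaussian process libraries; HC: hill climbing; Gen: genetic algorithm; Gibbs: Gibbs sampling; a sequence that several methods proposed may carry one label only). Affinity was read by AlphaSeq, a pooled yeast mating assay with surface-displayed partners. After mating in shaken culture at 30 °C for 16 h, diploids were selected and their barcode pairs sequenced. A regression on co-assayed BCL2-family reference pairs converts the normalised counts of each replicate to an apparent Kd. There are six technical replicates.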

Changes read parent residue, position, new residue, counted from the first residue of the VH shown. Numbers give log10(Kd / nM), so 0 is 1 nM and 3 is 1 µM. Smaller is tighter. Replicates are averaged; those with no signal do not enter the mean. "nd" marks a missing value. The strain was present, yet no cells mated with the target were sequenced in that replicate, which points to weak or no binding.

With R100A/S107L [Ctrl] the result was nd, nd, nd, nd, nd, nd (controls 0 of 18).
With F27L/S35P/F59A [Ctrl] the result was nd, nd, nd, nd, nd, nd (controls 0 of 18).
With R56W/F59Q/A101N/F105P [Ctrl] the result was nd, nd, nd, nd, nd, nd (controls 0 of 18).
With N30A/F59P/G61Q/R100W/F105K [Ctrl] the result was nd, nd, nd, nd, nd, nd (controls 0 of 18).
With T28S/A102S/T104R [Ctrl] the result was nd, nd, nd, nd, nd, nd (controls 0 of 18).
With T28D/L29M/G61T/A102Y/D106W [Ctrl] the result was nd, nd, nd, nd, nd, nd (controls 0 of 18).
With S53A/R100I [Ctrl] the result was nd, nd, nd, nd, nd, nd (controls 0 of 18).
With N30G/R56Y/F59A/A101E/A102S [Ctrl] the result was nd, nd, nd, nd, nd, nd (controls 0 of 18).
With T28A/T104S [Ctrl] the result was nd, nd, nd, nd, nd, nd (controls 1 of 18).
With F59A/G99A [Ctrl] the result was nd, nd, nd, nd, nd, nd (controls 0 of 18).
With S63D/R100E/A101W/T104L [Ctrl] the result was nd, nd, nd, nd, nd, nd (controls 0 of 18).
With V64Y/R100D [Ctrl] the result was nd, nd, nd, nd, nd, nd (controls 0 of 18).
With F27E/G61L/S63D/F105A [Ctrl] the result was nd, nd, nd, nd, nd, nd (controls 0 of 18).
With R56L/T58E/G61A/R100P [Ctrl] the result was nd, nd, nd, nd, nd, nd (controls 0 of 18).
With T28G/L29M/R100E/S107Q [Ctrl] the result was nd, nd, nd, nd, nd, nd (controls 0 of 18).
With R100S/A102I/T104S [Ctrl] the result was nd, nd, nd, nd, nd, nd (controls 0 of 18).
With R56M/G99R/S107L [Ctrl] the result was nd, nd, nd, nd, nd, nd (controls 0 of 18).
With S31M/R100W [Ctrl] the result was nd, nd, nd, nd, nd, nd (controls 0 of 18).
With T28S/S53A/R100F [Ctrl] the result was 0.69, 0.45, -0.39, 0.25, 0.43, -0.41 (mean 0.17; controls 0 of 18).
With N30D/S53A/R100E/D106R [Ctrl] the result was 0.15, 0.14, 0.28, 0.13, 0.21, 0.38 (mean 0.21; controls 1 of 18).
With G61L/R100T [Ctrl] the result was nd, nd, nd, nd, nd, nd (controls 0 of 18).
With S31D/S53A/R100K [Ctrl+GP_HC] the result was 0.07, -0.18, 0.51, -0.23, 0.54, 0.83; -0.86, -1.15, -1.26, -1.03, -0.66, -1.09 (mean -0.38; controls 0 of 36).
With S31E/D106L/S107A [Ctrl] the result was nd, nd, nd, nd, nd, nd (controls 0 of 18).
With V64F/G103S [Ctrl] the result was nd, nd, nd, nd, nd, nd (controls 0 of 18).
With G61S/A101L [Ctrl+GPLM_Gen] the result was 0.58, 0.82, 0.80, 0.28, 0.36, 0.91; nd, nd, nd, nd, nd, 0.81 (mean 0.65; controls 1 of 36).
With R56L/G103V [Ctrl] the result was nd, nd, nd, nd, nd, nd (controls 0 of 18).
With T28R [Ctrl] the result was nd, nd, nd, nd, nd, nd (controls 0 of 18).
With R57T/T58Q/S107Y [Ctrl] the result was nd, nd, nd, nd, nd, nd (controls 0 of 18).
With G61M [Ctrl] the result was nd, nd, nd, nd, nd, 3.57 (controls 0 of 18).
With G61S/T104R [Ctrl] the result was nd, nd, nd, nd, nd, nd (controls 0 of 18).
With R100N/A101E [Ctrl+GPLM_Gibbs] the result was -0.36, -0.41, 0.03, -0.51, -1.04, 0.19; 0.21, 0.28, 0.44, 0.15, 0.34, 0.32 (mean -0.03; controls 0 of 36).
With S31E/G61T/F105G [Ctrl] the result was nd, nd, nd, nd, nd, nd (controls 0 of 18).
With A101F [Ctrl] the result was nd, nd, nd, 0.41, 1.53, nd (mean 0.97; controls 0 of 18).
With G61T/T104F [Ctrl] the result was nd, nd, nd, nd, nd, nd (controls 0 of 18).
With T28G/S31E/R56L/A101E [Ctrl] the result was -0.06, -0.06, 0.32, 0.20, -0.42, 0.39 (mean 0.06; controls 0 of 18).

Picked from the list: the 5 lowest averages where every replicate gave a value.

S31D/S53A/R100K [Ctrl+GP_HC]: 0.07, -0.18, 0.51, -0.23, 0.54, 0.83; -0.86, -1.15, -1.26, -1.03, -0.66, -1.09 (mean -0.38; controls 0 of 36).
R100N/A101E [Ctrl+GPLM_Gibbs]: -0.36, -0.41, 0.03, -0.51, -1.04, 0.19; 0.21, 0.28, 0.44, 0.15, 0.34, 0.32 (mean -0.03; controls 0 of 36).
T28G/S31E/R56L/A101E [Ctrl]: -0.06, -0.06, 0.32, 0.20, -0.42, 0.39 (mean 0.06; controls 0 of 18).
T28S/S53A/R100F [Ctrl]: 0.69, 0.45, -0.39, 0.25, 0.43, -0.41 (mean 0.17; controls 0 of 18).
N30D/S53A/R100E/D106R [Ctrl]: 0.15, 0.14, 0.28, 0.13, 0.21, 0.38 (mean 0.21; controls 1 of 18).

The parent sequence was in this pool as ten entries: three were never detected, three once, and four in most replicates, with averages from 0.34 to 2.37. The authors' rule: three or more of the six replicates give a measured affinity, fewer mean a poor binder. Background: pairings of all heavy chain designs with three empty control strains gave a value in 1% of cases (median 2.08, 5th percentile 0.84). Values in that range, when seen in few replicates, are hard to tell from nonspecific mating. Also given: how often the same scFv was detected with the empty control strains. A sequence measured in both rounds can read differently, since the two assays cover different ranges. Where one sequence has several entries in the source, the replicates are listed entry by entry, parted by semicolons.